These results are taken from ChEMBL document CHEMBL2440021, “Discovery of β2 Adrenergic Receptor Ligands Using Biosensor Fragment Screening of Tagged Wild-Type Receptor” (ACS Med Chem Lett, 2013).

Sequences of proteins named here, by UniProt entry; tags and fusion partners are left off.
UniProt P08588, whole entry, looked up: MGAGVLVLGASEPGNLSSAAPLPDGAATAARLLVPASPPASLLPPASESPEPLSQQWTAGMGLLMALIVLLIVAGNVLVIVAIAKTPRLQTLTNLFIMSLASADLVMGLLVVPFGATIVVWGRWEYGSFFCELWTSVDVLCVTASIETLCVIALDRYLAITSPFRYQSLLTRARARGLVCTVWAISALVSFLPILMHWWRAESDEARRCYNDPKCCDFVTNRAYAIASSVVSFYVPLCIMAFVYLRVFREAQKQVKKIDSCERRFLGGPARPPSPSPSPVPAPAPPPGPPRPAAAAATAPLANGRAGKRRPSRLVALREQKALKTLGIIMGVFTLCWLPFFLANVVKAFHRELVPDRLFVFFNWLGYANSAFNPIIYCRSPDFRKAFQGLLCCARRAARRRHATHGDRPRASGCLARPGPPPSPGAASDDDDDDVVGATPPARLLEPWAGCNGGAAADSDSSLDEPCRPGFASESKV

Test [1] addresses T1, Beta-2 adrenergic receptor (Homo sapiens, UniProt P07550). Briefly: Antagonist activity at human beta2 adrenoceptor containing C-terminus of V2 vasopressin receptor expressed in HEK293 cells assessed as inhibition of isoproterenol-induced beta arrestin recruitment at 10 uM after 15 to 18 hrs by luciferase reporter gene assay. The class given is functional, cell-based. (Activated receptors often draw arrestin, which recruitment assays turn into a signal.)

Test [2] deals with T1, Beta-2 adrenergic receptor. Briefly: Antagonist activity at human beta2 adrenoceptor expressed in HEK293 cells assessed as inhibition of isoproterenol-induced cAMP production at 10 uM after 5 mins by luciferase reporter gene assay. The class given is functional, cell-based.
Test [3] concerns the target T1, Beta-2 adrenergic receptor. Briefly: Agonist activity at human beta2 adrenoceptor containing C-terminus of V2 vasopressin receptor expressed in HEK293 cells assessed as stimulation of beta arrestin recruitment after 15 to 18 hrs by luciferase reporter gene assay. The format is functional, cell-based.
In test [4] the target is T1, Beta-2 adrenergic receptor. Briefly: Agonist activity at human beta2 adrenoceptor expressed in HEK293 cells assessed as stimulation of cAMP production after 5 mins by luciferase reporter gene assay. The class given is functional, cell-based. For orientation: cAMP levels reflect the balance of adenylyl cyclase and phosphodiesterase activity.
For test [5], the target named is Beta-1 adrenergic receptor (Homo sapiens) (UniProt P08588). In words: Displacement of [125I]-Cyanopindolol from human beta1 adrenoceptor expressed in HEK293 cells after 90 mins by gamma counting analysis. The class given is cell-based. Background: Displacement assays read how much labelled ligand stays bound in the presence of the test substance.
The target in test [6] is T1, Beta-2 adrenergic receptor. In words: Displacement of [125I]-Cyanopindolol from human beta2 adrenoceptor expressed in HEK293 cells after 90 mins by gamma counting analysis. The class given is cell-based.
For test [7], the target named is T1, Beta-2 adrenergic receptor. Briefly: Binding affinity to N-terminal FLAG-tagged C-terminal His-10-tagged human beta2 adrenoceptor expressed in insect Sf9 cells by surface plasmon resonance analysis in presence of dodecyl maltoside.
For test [8], the target named is T1, Beta-2 adrenergic receptor. As to conditions: Sf9.

Calls of active or inactive are those of the source. The calls are words filed in the database; no cut-off is given here.

On to `Cc1cc(N2CCNCC2)c2ccccc2n1`, for which the inhibition result in test [1] and in test [2] was “Active” in each case. Besides, the outcome in test [3] and in test [4] was inactive. The Kic is 963 nM in test [5] and 343 nM in test [6]. Moreover, in test [7], the outcome was Active. Moreover, the Ka in test [8] was 1.16 ×10⁶ /M/s.
